{"source": "paper PMC11433870", "about": "“Neurotoxicity, Neuroprotection, In Vitro MAOA/MAOB Inhibitory Activity Assessment, Molecular Docking, and Permeability Assay Studies of Newly Synthesized Hydrazones Containing a Pyrrole Ring” (Molecules, 2024)", "key": {"[1]": {"test_system": "isolated rat brain mitochondria", "assay": "t-BuOOH-induced oxidative stress model: GSH level", "settings": "toxic agent applied alone, compared to control"}, "[2]": {"test_system": "isolated rat brain mitochondria", "assay": "t-BuOOH-induced oxidative stress model: MDA production", "settings": "toxic agent applied alone, compared to control"}}, "data": [{"smiles": "CC(C)(C)OO", "values": [{"measurement": "decrease of GSH level by toxic agent alone", "setting": "[1]", "result": 50, "unit": "%"}, {"measurement": "increase of MDA production by toxic agent alone", "setting": "[2]", "result": 154, "unit": "%"}]}]}
